## Binding of CDR-mutated scFvs to a peptide of the spike HR2 region

All variants were tested on one target, the spike HR2 peptide PDVDLGDISGINAS (SARS-CoV-2).

Parent: Ab-14, a human scFv built as VH, a 15-residue (Gly4Ser)3 linker, VL. Only the CDRs of the heavy chain vary.
VH: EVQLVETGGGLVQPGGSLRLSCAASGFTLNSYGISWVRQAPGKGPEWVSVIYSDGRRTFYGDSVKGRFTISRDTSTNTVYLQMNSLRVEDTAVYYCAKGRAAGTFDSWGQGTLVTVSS
VL: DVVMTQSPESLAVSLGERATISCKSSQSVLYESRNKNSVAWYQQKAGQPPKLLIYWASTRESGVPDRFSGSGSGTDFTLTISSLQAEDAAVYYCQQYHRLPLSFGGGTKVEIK

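The starting antibody came from a phage panning campaign against this peptide. In library AAYL49, one, two or three CDR residues were substituted; doubles and triples were drawn at random. In AlphaSeq, yeast of one mating type display the scFv and yeast of the other type display the target. After mating in shaken culture at 30 °C for 16 h, diploids were selected and their barcode pairs sequenced. Read counts were normalised to the haploid input and turned into Kd by a linear fit to BCL2-family pairs of known affinity, for each replicate. There are three technical replicates.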

Substitutions are numbered in sequence along the VH above, starting at 1 (not Kabat). All variants listed here change G26 of the VH, counted from its first residue. Scale: log10 of Kd in nM, estimated from mating counts; low values are strong binders. Replicates are averaged; those with no signal do not enter the mean. An entry "ND" has no value in the source: the pair was not observed among the diploids in that replicate. This suggests poor binding but is not conclusive.

changes	log10 Kd, replicates	mean log10 Kd (nM)	signal with controls
G26F S35T G61S	ND 4.47 ND	4.47	2 of 9 (3.89)
G26I V50P Y52Q	ND ND 4.34	4.34	3 of 9 (4.98)
G26L N30E G55R	ND ND ND	ND	0 of 9
G26T V50W F105A	ND 4.59 ND	4.59	2 of 9 (4.10)
G26F F59E A101R	ND ND ND	ND	0 of 9
G26T V50Q S53L	ND 3.69 ND	3.69	6 of 9 (5.03)
G26P S31D G99E	ND ND ND	ND	1 of 9 (5.18)
G26W S31Q I34N	ND ND ND	ND	4 of 9 (3.71)
G26L S53E D106Y	ND ND ND	ND	0 of 9
G26E Y32H	1.68 3.18 1.80	2.22	0 of 9
G26P G33E T58F	4.03 ND ND	4.03	4 of 9 (4.18)
G26D F105E	ND ND ND	ND	0 of 9
G26Q Y32P	ND ND 5.89	5.89	4 of 9 (3.81)
G26T F59R A101W	3.72 ND ND	3.72	5 of 9 (4.18)
G26N A101C D106T	ND ND ND	ND	2 of 9 (4.09)
G26W D54M R100T	ND ND ND	ND	0 of 9
G26Q T28A S53W	2.39 2.51 2.95	2.62	1 of 9 (3.38)
G26I G55F D106M	4.33 ND 4.27	4.30	0 of 9
G26F I51R G99E	ND ND ND	ND	1 of 9 (3.51)
G26D V50C A102N	ND ND ND	ND	4 of 9 (3.75)
G26F N30E D62I	ND ND ND	ND	0 of 9
G26R S31R I34D	ND ND ND	ND	0 of 9
G26M F27G S107F	2.86 2.44 2.24	2.52	0 of 9
G26A T28I V50A	ND ND ND	ND	0 of 9
G26D T28R S63C	ND ND ND	ND	0 of 9
G26V Y60T A101I	2.99 3.19 3.52	3.23	3 of 9 (4.02)
G26A R57V	ND ND ND	ND	0 of 9
G26A V64E R100W	4.84 2.96 ND	3.90	1 of 9 (5.27)
G26C S63A A101I	1.30 1.40 1.66	1.45	3 of 9 (3.57)
G26C Y52W S63G	5.07 ND 3.57	4.32	6 of 9 (4.08)
G26S F27N A101G	2.34 2.05 2.40	2.26	1 of 9 (2.67)
G26K T28D A101Y	0.56 0.76 0.67	0.66	2 of 9 (4.81)
G26C D62R V64A	5.62 3.68 ND	4.65	3 of 9 (4.42)
G26Q Y52G V64Y	ND 3.18 ND	3.18	2 of 9 (4.51)
G26I G103F S107M	2.08 2.31 2.54	2.31	5 of 9 (2.99)
G26C I34G F105V	ND ND ND	ND	2 of 9 (2.94)
G26F L29M T104A	ND ND ND	ND	0 of 9
G26D V64G	4.57 3.77 3.94	4.09	1 of 9 (3.61)
G26P Y60T	ND 2.51 4.52	3.51	0 of 9
G26Q G33P A101E	ND 3.46 ND	3.46	3 of 9 (4.24)
G26K N30L	2.45 2.39 2.77	2.54	7 of 9 (5.33)
G26M S31I Y52C	ND ND 4.73	4.73	5 of 9 (4.75)
G26V S53N D62H	ND ND ND	ND	0 of 9
G26P I34V	3.89 4.12 4.59	4.20	5 of 9 (4.62)
G26Y A101F T104M	2.68 2.26 ND	2.47	0 of 9
G26A F27C R56N	2.53 2.24 2.17	2.31	0 of 9
G26A L29N R56P	ND ND 4.88	4.88	3 of 9 (3.80)
G26V T28V	ND ND ND	ND	0 of 9

Top 3 of the variants detected in all replicates, tightest first:

{"changes": "G26K T28D A101Y", "log10 Kd, replicates": "0.56 0.76 0.67", "mean log10 Kd (nM)": "0.66", "signal with controls": "2 of 9 (4.81)"}
{"changes": "G26C S63A A101I", "log10 Kd, replicates": "1.30 1.40 1.66", "mean log10 Kd (nM)": "1.45", "signal with controls": "3 of 9 (3.57)"}
{"changes": "G26E Y32H", "log10 Kd, replicates": "1.68 3.18 1.80", "mean log10 Kd (nM)": "2.22", "signal with controls": "0 of 9"}

For reference, the parent read 0.65 as the reference entry and 4.11 (one replicate of three) as a member of this library. Empty control strains, which show no peptide, gave a signal in 15% of pairings with library AAYL49; the median was 4.06 and 95% of these signals were weaker than 2.83. No background was subtracted. For each scFv, signals with the empty controls are counted beside the result, with their mean in brackets.

Data: MIT Lincoln Laboratory AlphaSeq set, Engelhart et al. 2022, doi:10.1038/s41597-022-01779-4, as distributed in FLAb.